## Curated experimental data: properties

From the experimental data distributed with OPERA 2.9.

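These are experimental values that the OPERA curators gathered from public databases to train and test their QSAR models. One number stands for a compound and property, with no spread given. How each value was measured is not recorded, so precision varies. Where a salt, mixture or single isomer is drawn, the source does not say that exactly this form was tested. Some upstream entries may be estimates or bounds without being marked so.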

The melting point is given in degrees Celsius. The boiling point refers to atmospheric pressure (760 mmHg), by the definition of the set. The octanol-water partition coefficient is given as log10; larger values mean a more lipophilic compound. Solubility in water is on a log10 molar scale (set defined at 25 °C). Vapor pressures (log10 mmHg) refer to near room temperature, 15 to 30 °C; higher is more volatile. The unbound fraction in human plasma runs from 0 (all bound) to 1 (all free). Clint is human hepatic intrinsic clearance in µL/min per million cells; 0 means that no clearance was seen. "–" marks a cell with nothing listed here.

| SMILES | name | MP (°C) | bp (°C) | log Kow | water solubility (log10 mol/L) | vapor pressure (log10 mmHg) | fu | hepatic Clint (µL/min/10^6 cells) |
|---|---|---|---|---|---|---|---|---|
| COc1ccc(NS(=O)(=O)c2ccc(N)cc2)nn1 | Sulfamethoxypyridazine | – | – | – | -3.28 | – | 0.25 | – |
| CCCCCOC(=O)c1c(Cl)c(Cl)cc(Cl)c1OC(=O)C(=O)Oc1c(Cl)cc(Cl)c(Cl)c1C(=O)OCCCCC | Bis(2,4,5-trichloro-6-carbopentoxyphenyl) oxalate | – | – | 5.211 | – | -7.648 | – | – |
| NC(=O)c1ccc(Cl)c(N)c1 | Benzamide, 3-amino-4-chloro- | – | – | 0.95 | -1.977 | – | – | – |
| CC(CC(C)(C)C)CC(C)(C)CC(C)(C)C (stereo not drawn) | 2,2,4,4,6,8,8-Heptamethylnonane | -15 | – | – | – | -1.275 | – | – |
| CCCCCCCCC/C=C/C=O | (E)-Dodec-2-en-1-al | 5.5 | – | 4.892 | -4.754 | -0.66 | – | – |
| NCCCn1ccnc1 | 1H-Imidazole-1-propanamine | – | – | -0.6 | – | -3.046 | – | – |
| CCOCC1CCC(COCC)CC1 (stereo not drawn) | 1,4-Bis(ethoxymethyl)cyclohexane | 10 | 244.9 | 3 | -2.547 | -1.954 | – | – |
| C=C(OC(C)=O)c1ccccc1 | 1-Phenylethenyl acetate | -20.07 | – | 2.01 | -2.114 | -1.044 | – | – |
| O=C1OC(=O)C2CCCCC12 (stereo not drawn) | Hexahydrophthalic anhydride | – | – | 1.33 | -1.565 | -2.634 | – | – |
| CN1C(=O)CC(c2ccccc2)C1=O (stereo not drawn) | Phensuximide | – | – | 0.7 | -1.933 | – | – | – |
| C=CCOC(=O)COC1CCCCC1 | 2-Propen-1-yl 2-(cyclohexyloxy)acetate | – | – | – | -2.078 | -0.354 | – | – |
| CCCCCCCCCCCCCCCC[N+](C)(C)CC(=O)[O-] | – | 61.6 | – | 0.009 | – | – | – | – |
| Cc1cc(-c2ccc(N=C=O)c(C)c2)ccc1N=C=O | 3,3'-Dimethyl-4,4'-diphenylene diisocyanate | – | – | 4.5 | -2.308 | -6.16 | – | – |
| C=COC1CCCCC1 | (Ethenyloxy)-cyclohexane | -109 | – | 3.4 | -2.583 | 0.536 | – | – |
| CCCCCCCCCC | Decane | – | – | – | – | – | 0.06697 | 0.1533 |
| CCCCCCCCCCCCCCCCOC(=O)/C=C/C(=O)OCCCCCCCCCCCCCCCC | 2-Butenedioic acid (2E)-, di-C16-18-alkyl esters | 54 | – | – | -7.053 | – | – | – |
| CCCOC(=O)C1CCCCC1C(=O)OCCC (stereo not drawn) | dipropyl cyclohexane-1,2-dicarboxylate | -42.5 | – | 4.5 | -3.263 | -2.824 | – | – |
| C=CN(C)C(C)=O | N-Methyl-N-vinylacetamide | – | – | 0.415 | – | 0.189 | – | – |

Excerpt, the final 3 entries:

| SMILES | name | MP (°C) | bp (°C) | log Kow | water solubility (log10 mol/L) | vapor pressure (log10 mmHg) | fu | hepatic Clint (µL/min/10^6 cells) |
|---|---|---|---|---|---|---|---|---|
| CCCCCCCCCCCCCCCCOC(=O)/C=C/C(=O)OCCCCCCCCCCCCCCCC | 2-Butenedioic acid (2E)-, di-C16-18-alkyl esters | 54 | – | – | -7.053 | – | – | – |
| CCCOC(=O)C1CCCCC1C(=O)OCCC (stereo not drawn) | dipropyl cyclohexane-1,2-dicarboxylate | -42.5 | – | 4.5 | -3.263 | -2.824 | – | – |
| C=CN(C)C(C)=O | N-Methyl-N-vinylacetamide | – | – | 0.415 | – | 0.189 | – | – |